Test results published in article PMC12904088, “Development of Dimethylsulfonium Probes for Broad Profiling of Methyllysine Reader Proteins” (Advanced Science, 2025).

Protein sequences, listed by entry. Tags and fused reporters are not part of them.
UniProt P83916, whole entry, species assumed: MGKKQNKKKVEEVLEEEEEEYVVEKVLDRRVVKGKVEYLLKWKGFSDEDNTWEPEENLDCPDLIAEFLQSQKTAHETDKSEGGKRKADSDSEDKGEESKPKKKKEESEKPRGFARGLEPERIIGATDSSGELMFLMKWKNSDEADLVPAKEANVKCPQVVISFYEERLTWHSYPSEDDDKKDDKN

Molecular target: T1, CBX1 (Homo sapiens, UniProt P83916)
T1 construct: BPTF, CBX1, and SPIN1 were expressed and purified as previously reported; made in house
Experiment: Competitive crosslinking with site-specific methylated peptides
Assay type: biochemical
Details: 2.5 mM general probe, 100 µM competing peptide (1‐15), 10 µM CBX1, pH 7.5, UV 20 min, MS
Protocol: Probes were added to the crosslinking buffer (100 mM HEPES, pH 7.5), followed by the addition of reader proteins. The mixture was transferred to 96‐well plates and incubated on ice for 10 min. After UV irradiation on ice at an energy of 720 mJ cm^−2, the samples were analyzed by UPLC‐Q‐TOF‐MS. The analytical yield was calculated based on the mass peak areas as previously reported.^[ [55] ^] The yield is calculated as the peak area of the desired product divided by the sum of the peak areas of the crosslinking products and the starting material, multiplied by 100%. For crosslinking readers with general probes: The mixture of 5 mM general probes and 10 µM reader proteins (BPTF, CBX1, CDYL2) was crosslinked by the General procedure for crosslinking for 30 min. For competition assays, the mixture of 2.5 mM general probes, 100 µM H3K4me3 (1‐15) or H3K9me3 (1‐15) peptide or 7.5 mM RKGGGGGGKme3GG, 10 µM reader proteins (BPTF, CBX1) was crosslinked by the General procedure for crosslinking for 20 min (H3K4me3 or H3K9me3 for competition) or 30 min (RKGGGGGGKme3GG for competition). For Kinetics of reader crosslinking: The mixture of 0.625/1.25/2.5/5/10 mM general probe and 10 µM reader proteins was crosslinked by the General procedure for crosslinking for 20 min. […]

H3K4me3 peptide: site-specific methylated competing peptide, from previous work
Competition of general probe (prototype, peptide 1) crosslinking with CBX1: but not the H3K4me3 peptide

H3K9me3 peptide: site-specific methylated competing peptide, from previous work
Competition of general probe (prototype, peptide 1) crosslinking with CBX1: effectively competed
